# B1: 2G10 (antibody, V domains shown)
# Sequences of proteins named here, by UniProt entry; tags and fusion partners are left off. Residues count along the entry.
# UniProt Q86Z14, 53-996: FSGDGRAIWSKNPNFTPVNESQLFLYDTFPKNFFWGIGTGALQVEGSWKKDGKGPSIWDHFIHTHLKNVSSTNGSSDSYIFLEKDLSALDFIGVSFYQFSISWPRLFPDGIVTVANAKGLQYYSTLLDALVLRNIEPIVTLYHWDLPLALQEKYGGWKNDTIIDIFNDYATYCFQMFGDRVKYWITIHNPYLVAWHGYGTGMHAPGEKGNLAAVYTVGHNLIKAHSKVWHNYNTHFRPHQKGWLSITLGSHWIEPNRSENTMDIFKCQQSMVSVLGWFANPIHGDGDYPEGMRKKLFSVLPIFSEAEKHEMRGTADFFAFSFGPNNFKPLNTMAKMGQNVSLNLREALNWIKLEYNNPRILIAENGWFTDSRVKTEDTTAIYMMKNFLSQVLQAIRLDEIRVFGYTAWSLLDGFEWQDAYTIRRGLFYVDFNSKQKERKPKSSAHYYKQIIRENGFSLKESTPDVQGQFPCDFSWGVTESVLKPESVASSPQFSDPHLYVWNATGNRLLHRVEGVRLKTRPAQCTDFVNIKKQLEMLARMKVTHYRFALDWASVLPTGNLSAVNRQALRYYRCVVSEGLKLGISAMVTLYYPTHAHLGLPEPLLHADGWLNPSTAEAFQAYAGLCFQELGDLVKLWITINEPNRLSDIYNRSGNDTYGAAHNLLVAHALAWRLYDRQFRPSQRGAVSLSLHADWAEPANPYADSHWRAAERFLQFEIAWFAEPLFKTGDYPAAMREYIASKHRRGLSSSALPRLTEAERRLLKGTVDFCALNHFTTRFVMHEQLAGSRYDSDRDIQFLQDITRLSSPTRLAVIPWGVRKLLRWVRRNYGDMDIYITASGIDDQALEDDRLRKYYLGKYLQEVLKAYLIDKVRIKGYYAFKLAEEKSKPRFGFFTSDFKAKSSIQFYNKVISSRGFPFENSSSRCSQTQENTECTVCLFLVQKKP
# VH: QVQLVESGGGVVQPGRSLRLSCAASRFSFSRYGMHWVRQAPGKGLEWVAVIWFDGRNQYYADSVKGRFTISRDNSKNTLFLQMNSLRVEDTAVYYCARDHPVVGTSFDYWGQGTLVTVSS
# VL: QSVLTQPPSVSAAPGQKVTVSCSGSSSNIGNNYVSWYQQLPGTAPKLLIYDNNKRPSGIPDRFSGSKSGTSATLGITGLQTGDEAEYYCGTWDSSLSVVAFGGGTKLTVLG
# Target: biotinylated hu-β-klotho (UniProt Q86Z14 53-996, biotinylated (sites not given))
# Test: Octet
binder,measurement,value
B1,Kd,0.129 nM

# Source: patent publication US20130129725A1 (published 2013)
